This is an account of results in patent US9550741B2, “Benzoisothiazole compounds and methods of treating schizophrenia” (SHANGHAI INSTITUTE OF PHARMACEUTICAL INDUSTRY, priority 2013, dated 2017).

By UniProt entry, the sequences of proteins in these tests, tags left out.
UniProt P35462, whole entry: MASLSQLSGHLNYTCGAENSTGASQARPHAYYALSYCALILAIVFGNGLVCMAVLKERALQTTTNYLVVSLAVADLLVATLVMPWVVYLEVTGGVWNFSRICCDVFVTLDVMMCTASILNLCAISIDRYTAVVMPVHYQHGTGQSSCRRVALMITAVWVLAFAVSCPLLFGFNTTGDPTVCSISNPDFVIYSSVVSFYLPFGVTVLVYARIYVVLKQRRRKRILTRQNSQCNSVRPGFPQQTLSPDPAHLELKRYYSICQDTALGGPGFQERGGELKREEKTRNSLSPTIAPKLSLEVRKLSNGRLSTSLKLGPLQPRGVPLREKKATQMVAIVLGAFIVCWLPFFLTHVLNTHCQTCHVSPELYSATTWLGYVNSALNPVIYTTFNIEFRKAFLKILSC

This test deals with human recombinant D3 receptor (Homo sapiens (Human), UniProt P35462). In words: Dopamine D3 receptor binding test. To be noted: [3H]methyl-spiperone 0.3 nM, human recombinant D3 receptor in CHO cells; read-out: Affinity of the compound to D3 receptor, Ki value. As to the method: With [^3H]methyl-spiperone (0.3 nM) as the ligand and (+)-butaclamol (10 LM) for determining non-specific binding, binding tests are carried out on human recombinant D3 receptor (expressed in CHO cells).

One may read the Ki as the equilibrium dissociation constant of an inhibitor or competing ligand from its target. `CC(C)(C)c1ccc(S(=O)(=O)N[C@H]2CC[C@H](CCN3CCN(c4nsc5ccccc45)CC3)CC2)s1` [II-10, trans-N-(4-(2-(4-(benzo[d]isothiazol-3-yl)piperazin-1-yl)ethyl)cyclohexyl)-5-tert-butylthienyl-2-sulfamide]: the Ki came to 7.09 nM.
